T1: BT4656^S1_11 sulfatase (Ser77Cys) (Bacteroides thetaiotaomicron, UniProt Q89YS5, S101C)
T1 construct: Hexa His; made in house; host or cells: E. coli strain TUNER (Novagen)
T1 sequence (Q89YS5 1-558 S101C): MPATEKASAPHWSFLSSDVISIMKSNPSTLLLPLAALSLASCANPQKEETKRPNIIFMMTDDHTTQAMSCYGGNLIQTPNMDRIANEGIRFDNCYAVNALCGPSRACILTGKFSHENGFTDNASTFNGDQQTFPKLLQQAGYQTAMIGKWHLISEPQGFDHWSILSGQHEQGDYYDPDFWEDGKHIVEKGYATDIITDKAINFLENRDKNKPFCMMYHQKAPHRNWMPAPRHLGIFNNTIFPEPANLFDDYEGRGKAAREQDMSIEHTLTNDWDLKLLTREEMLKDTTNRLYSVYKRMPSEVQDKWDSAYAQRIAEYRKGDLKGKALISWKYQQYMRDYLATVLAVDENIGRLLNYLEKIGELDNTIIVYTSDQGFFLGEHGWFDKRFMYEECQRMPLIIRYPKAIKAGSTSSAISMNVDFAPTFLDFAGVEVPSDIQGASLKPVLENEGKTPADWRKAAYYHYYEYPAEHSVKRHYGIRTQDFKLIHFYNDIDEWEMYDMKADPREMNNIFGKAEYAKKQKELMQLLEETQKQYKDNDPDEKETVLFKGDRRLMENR

B1: BT4656^S1_11 sulfatase (Ser77Cys) (Bacteroides thetaiotaomicron VPI-5482; S101C) (protein)
chain: T1 sequence (Q89YS5 1-558 S101C)
notes: Hexa His; made in house; host or cells: E. coli strain TUNER (Novagen)

What was measured:
[1] = molecular target: T1, BT4656^S1_11 sulfatase (Ser77Cys); experiment: CE-based microfluidic mobility shift desulfation assay (EZ Reader II) with 6S-GlcNAc-BODIPY substrate; assay type: biochemical; details: anions added to CE sulfatase enzyme assays; concentrations up to 10 mM
From the text: (§1) 6S-N-acetyl-D-glucosamine was labelled at its reducing end with BODIPY which has a maximal emission absorbance of ∼503 nm, which can be detected by the EZ Reader II platform via LED-induced fluorescence. Non-radioactive microfluidic mobility shift carbohydrate sulfation assays were optimised in solution with a 12-sipper chip coated with CR8 reagent and performed using a PerkinElmer EZ Reader II system employing EDTA-based separation buffer and real-time kinetic evaluation of substrate desulfation. Pressure and voltage settings were adjusted manually (1.8 psi, upstream voltage: 2250 V, downstream voltage: 500 V) to afford optimal separation in the reaction mixture of the sulfated substrate and unsulfated glycan product, with a sample (sip) time of 0.2 s, and total assay times appropriate for the experiment. Individual de-sulfation assays were carried out at 28°C and were pre-assembled in a 384-well plate in a volume of 80 μl in the presence of substrate concentrations between 0.5 and 20 μM with 100 mM Bis-Tris-Propane (BTP) or Tris, dependent on the pH required, and 150 mM NaCl, 0.02% (v/v) Brij-35 and 5 mM CaCl2. The amount of de-sulfation was directly calculated in real-time using EZ Reader II software by measuring the sulfated carbohydrate : unsulfated carbohydrate ratio at each time point during the assay. […]

[2] = substrate: CC(=O)N[C@@H]1[C@@H](O)[C@H](O)[C@@H](COS(=O)(=O)O)O[C@H]1NNC(=O)CCC1=[N+]2C(=Cc3c(C)cc(C)n3[B-]2(F)F)C=C1; experiment: as above; assay type: biochemical, Bacteroides thetaiotaomicron; details: other: 100 nM BT4656^S1_11; substrate 0.5, 1 and 2 μM; technical triplicates; 28.0 °C
From the text: as §1

Molecule	inhibition of BT4656^S1_11 by inorganic anions [1]	kcat/Km [2]
O=S(=O)(O)O [sulfate]	significant inhibition only at high (10 mM) concentrations	
phosphate	significant inhibition only at high (10 mM) concentrations	
B1		6.4 × 10^4 min^–1 M^–1
